This is an account of results in patent US11819556B2, “Stabilized compositions of radionuclides and uses thereof” (RayzeBio, Inc., priority 2021, dated 2023).

Read-outs that look alike come from different tables or passages of the source.

For the data set the following is noted: 0.03 mCi/ml, excipient 1 mg/ml in sodium acetate-acetic acid buffer pH 5.80, 25° C.

With `CCO` [10% EtOH, EtOH], where the note is “0 hour after mixing”, the “Percentage of ^225Ac present in [^225Ac]Ac-DOTA-TATE” value (“Percentage of ^225Ac present” for short) is given as 99.42%. The same measure, in the same setting: then `O=C(O)CN(CCN(CC(=O)O)CC(=O)O)CCN(CC(=O)O)CC(=O)O` [DTPA, Diethylenetriaminepentaacetic acid], with 99.42%; and `N[C@@H](CCC(=O)N[C@@H](CS)C(=O)NCC(=O)O)C(=O)O` [L-Glutathione], with 99.42%; and `CSCC[C@H](N)C(=O)O` [L-Methionine], with 99.42%.

Regarding `Oc1ccccc1` [Phenol], the “Percentage of ^225Ac present” value was 98.61% (0 hour after mixing) and 94.44% (24 hours after mixing). As to `O=C(O)c1ccccc1O` [Salicylic Acid], the “Percentage of ^225Ac present” value (0 hour after mixing) was 99.42%. Take “Albumin: excipient at 1 mg/ml in the buffer”: the “Percentage of ^225Ac present” value (0 hour after mixing) was found to be 98.61%, the “Percentage of ^225Ac present” value (24 hours after mixing) is listed as 94.44% and the “Percentage of ^225Ac present” value (48 hours after mixing) is 89.39%.
